In patent publication US20250320138A1 (priority 2022, published 2025):
Where two headings read alike, the source gives them in different places.

Columns and labels:
[1] = test system: chlorine-resistant Methylobacterium strain
[2] = test system: chlorine-resistant Methylobacterium strain; settings: 0.3 ppm free chlorine alone; 40 seconds
[3] = test system: chlorine-resistant Methylobacterium strain; settings: 2 ppm free chlorine only; 40 seconds
[4] = test system: chlorine-resistant Methylobacterium strain; remark: listed apart in the source
[5] = test system: Methylobacterium reference strain; assay: Survival rate after exposure to electrolyzed water containing only free chlorine, reference strain; settings: 1.5 ppm free chlorine, Comparative Example 2
[6] = test system: chlorine-resistant Methylobacterium strain; assay: Survival rate after exposure to electrolyzed water containing only free chlorine, chlorine-resistant strain; settings: 4 ppm free chlorine; exposed for 10 seconds; Comparative Example 2

free chlorine
bactericidal rate ([1]; 0.2 ppm free chlorine, Test 7): 12.5% | bactericidal rate ([1]; 0.375 ppm free chlorine, Test 2 / Comparative Example 1): 10.6% | bactericidal rate ([1]; 0.75 ppm free chlorine, Test 3 / Comparative Example 1): 19.7% | bactericidal rate ([1]; 1.0 ppm free chlorine, Test 6): 28.3% | bactericidal rate ([1]; 1.5 ppm free chlorine, Test 5): 89.4% | bactericidal rate ([1]; 1.5 ppm free chlorine, exposure 10 to 40 seconds, Tests 1 and 4): 30.6% | degree of membrane damage (red fluorescence intensity/green fluorescence intensity) [2]: 0.069 | inner structure of cell body (electron microscope) [3]: an organization is packed inside the cell body similarly to the blank | bactericidal effect (common logarithm of initial bacteria number minus common logarithm of remaining bacteria number) ([4]; 2.0 ppm free chlorine, bovine serum albumin 2 mg/L, Test 8): 0.69 | bactericidal effect (common logarithm of initial bacteria number minus common logarithm of remaining bacteria number) ([4]; 4.9 ppm free chlorine, bovine serum albumin 20 mg/L, Test 9): 1.64 | bactericidal effect (common logarithm of initial bacteria number minus common logarithm of remaining bacteria number) ([4]; 4.9 ppm free chlorine, bovine serum albumin 60 mg/L, Test 10): 0.20 | survival rate [5]: less than 0.001 | survival rate [6]: more than 0.1
